In patent US20250381110A1, “SKIN CARE COMPOSITION AND METHOD OF USING THE SAME” (THE PROCTER & GAMBLE COMPANY, priority 2024, published 2025):
Where a name gives a salt, the structure may show the parent alone.

Test system: p62-dependent mitophagy
Experiment: Luciferase-p62 assay (Fluc-p62 clearance) in mouse embryonic fibroblasts
Format: cell-based
Details: for Mean Luminescence: Luciferase-p62 assay, mouse embryonic fibroblasts (MEFs), compounds at 10 μM; for % Activity relative to Rapamycin: percentage of activity relative to rapamycin tested in the same experiment at the same concentration; for % Activity relative to Rapamycin / % Activity over baseline: MEFs, 10 μM; for % Activity over baseline: percentage of Luciferase-p62 clearance relative to baseline (mean luminescence in the absence of doxycycline induction)

SMILES	Mean Luminescence	% Activity relative to Rapamycin [%]	% Activity over baseline [%]
C[C@@H]1CC[C@H]2[C@@H](C)C(=O)O[C@@H]3O[C@@]4(C)CC[C@@H]1[C@]32OO4 [Artemisinine]	982.40	70.78	–
CC(C)NCC(O)c1ccc(O)c(O)c1 (centres unmarked) [Isoprenaline HCl]	908.26	79.04	43.87
N=C(N/N=C/c1ccc(Cl)cc1)N/N=C/c1ccc(Cl)cc1 [Robenidine hydrochloride]	794.31	91.73	50.91
